Amino acid sequences for entries named in this document (tags omitted).
UniProt P48039, whole entry: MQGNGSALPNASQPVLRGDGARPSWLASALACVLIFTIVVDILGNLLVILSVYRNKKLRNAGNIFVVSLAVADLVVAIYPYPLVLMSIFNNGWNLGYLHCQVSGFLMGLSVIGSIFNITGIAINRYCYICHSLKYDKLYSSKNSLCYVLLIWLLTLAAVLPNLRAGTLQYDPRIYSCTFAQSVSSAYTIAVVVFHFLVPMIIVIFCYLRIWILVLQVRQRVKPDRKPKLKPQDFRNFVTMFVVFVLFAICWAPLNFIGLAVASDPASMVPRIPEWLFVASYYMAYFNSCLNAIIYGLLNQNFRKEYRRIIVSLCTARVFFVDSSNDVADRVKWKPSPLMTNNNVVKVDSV

According to PMC4069108 (PLoS ONE, 2014):

Assays:
[1] = biological target: human melatonin MT1 receptor (MT1 CHO membranes) (Homo sapiens, UniProt P48039); experiment: [3H]-melatonin competition, filtration; type: binding; settings: CHO membranes; […] [3H]-melatonin, pH […] MgCl2, […] °C
[2] = biological target: recombinant human MT1 receptor purified from Pichia pastoris (MT1 purified) (Homo sapiens, UniProt P48039); experiment: [3H]-melatonin competition, PEG precipitation and filtration; type: binding; settings: purified in […] Fos14/[…] CHAPS; […] [3H]-melatonin, […] CHAPS/[…] CHS, pH […] MgCl2, […] °C

SMILES: COc1ccc2cccc(C(CO)CNC(=O)CF)c2c1 (centres unmarked)
- MT1 CHO membranes / pKi ± SEM [1]: 8.53±0.06 pKi (-log M)
- MT1 purified / pKi ± SEM [2]: 9.09±0.21 pKi (-log M)
